High-throughput results deposited in PubChem by National Center for Advancing Translational Sciences (NCATS).
ALDH1A1 inh: ALDH1A1 (human) enzyme inhibition. P00352. Purified ALDH1A1, NADH fluorescence, propionaldehyde substrate. Potency, µM (titrated, usually from 75.3 µM), inactives show at the top dose activity, negative = inhibition, hits mostly inhibitors. 220,000 tested, 7.3% active. AID 1030; active = well fitted inhibition curve with a large enough effect, not every such curve was filed as active; inconclusive = small, poorly fitted or top-dose-only effect, or another doubt; inactive = no such curve, though single readings can be large or run the other way;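 note: potency is the fitted concentration of half-maximal effect; plate controls were no enzyme wells and a reference inhibitor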
miR-21 reporter: raises the signal of a miR-21 reporter | AID 2288 | 340,000 tested, under 10 active | Potency, µM (series often up to 38.3 µM), without a hit: at the highest dose reporter change, positive = more light | HeLa miR-21 FLuc reporter, luciferase, 48 h; active = well fitted rising curve with a large enough effect; inconclusive = small, poorly fitted or top-dose-only effect; inactive = no such curve, though single readings can be large or run the other way;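 further: % of control where 0% means no effect; miR-21 action dims this reporter so a rising signal means less miR-21 action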
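Compounds were titrated across several concentrations (up to approximately 40 uM) and incubated 48 hours with HeLa miR-21-FLuc reporter cells (miR-21 target sequence downstream of FLuc, endogenous miR-21). Readout was firefly luciferase luminescence after lytic detection reagent.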
LMNA splice mod: changes lamin A minigene splicing in HeLa cells; HeLa LMNA splicing GFP/RFP minigene ratio, 48 h; Potency, µM (highest dose often 46.1 µM), for inactives: at the highest dose ratio change, negative = inhibition, most hits filed as inhibitors; 200,000 tested, 0.01% active; AID 1487; active = well fitted inhibition curve with a large enough effect in the signal ratio, with a control signal flat, not every such curve was filed as active; inconclusive = small, poorly fitted or top-dose-only effect, or effect the other way, or a change in a side signal; the % refers to the signal ratio; note: potency is the fitted concentration of half-maximal effect; % is set by controls: 0 for no effect and ±100 for the full control effect
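S3 HeLa stable clones carrying a lamin A-EGFP splicing minigene plus DsRed2 were seeded at 600 cells/well in Opti-MEM with 2% FBS, pin-dosed and incubated 48 h at 37°C. Acumen cytometry (488 nm) gave the GFP/RFP total-intensity ratio.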
G9a inh: blocks human histone lysine methyltransferase G9a; G9a H3K9 monomethylation, AlphaScreen, 2 h; Potency, µM (series often up to 102 µM), for the others: top-dose activity, negative = inhibition, most hits filed as inhibitors; 350,000 tested, 8.8% active; AID 504332; note: potency is the fitted concentration of half-maximal effect; % is set by controls: 0 for no effect and ±100 for the full control effect; nearly all actives have a fitted effect of over 75% in size
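Enzyme 20 nM + cpd, 15 min RT; add b-H3K9 pep 500 nM / SAM 20 uM; 2 h RT; anti-H3K9me1 Ab 0.5 ug/mL + SA donor / anti-rabbit acceptor beads 20 ug/mL each, 10 min; AlphaScreen read.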
Sfp inh: qHTS Assay for Inhibitors of Bacillus subtilis Sfp phosphopantetheinyl transferase (PPTase); Biochemical Sfp PPTase activity, qHTS; Potency, µM, for inactives: max response, negative = inhibition, actives largely listed as inhibitors; actives 3.5% (n = 310,000); AID 1490, 2009; active = well fitted inhibition curve with a large enough effect; inconclusive = small, poorly fitted or top-dose-only effect, or another doubt; inactive = no such curve, though single readings can be large or run the other way;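 note: the enzyme is Sfp with the accession as filed and its product quenches rhodamine fluorescence; potency is the fitted concentration of half-maximal effect; 0% = enzyme reaction without inhibitor and -100% = no enzyme wells; top concentration of the series not given in the record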
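After 15 min at room temperature with compound, 15 nM Sfp received 5 uM rhodamine-CoA plus 12.5 uM BHQ-2-ybbR (50 mM Hepes pH 7.6, 10 mM MgCl2). Rate came from the fluorescence difference over 30 min, ex 525/em 598 nm.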
KDM4E inh: inhibitors of human JMJD2E histone demethylase | B2RXH2 | JMJD2E catalytic domain, FDH-coupled NADH fluorescence (FDH is formaldehyde dehydrogenase) | Potency, µM (top dose mostly 57.1 µM), for the others: at the highest dose activity change, negative = inhibition, most hits filed as inhibitors | 230,000 tested, 1.6% active | AID 2147; active = well fitted inhibition curve with a large enough effect, not every such curve was filed as active; inconclusive = small, poorly fitted or top-dose-only effect, or another doubt; inactive = no such curve, though single readings can be large or run the other way;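 note: potency is the fitted concentration of half-maximal effect; 0% = wells with enzyme and -100% = buffer wells without enzyme; nearly all actives have a fitted effect of over 50% in size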
The depositor's hits bear a star; u = inconclusive; x = not tested or not shown; [ ] = dose if it differs, or a comment. Sampled rows, rich in hits. Any-hit rate of the full collection: about 13%. Unless noted, calls come from the whole dose curve; as a rule, active = well fitted curve in the direction sought with a large enough effect; inconclusive = small, poorly fitted or top-dose-only effect, or another doubt; inactive = no such curve, though single readings can be large; an effect the other way counts as inactive or inconclusive.

SMILES | ALDH1A1 inh | miR-21 reporter | LMNA splice mod | G9a inh | Sfp inh | KDM4E inh
O=C(NCCc1ccccc1)c1ccc2c(c1)CCN2S(=O)(=O)c1ccc(Cl)cc1 | x | 3% | x | -27%[59 µM] | x | x
COc1ccc(S(=O)(=O)Nc2cccc(-c3ccc(N4CCCCCC4)nn3)c2)cc1F | x | -29% | -11%[46 µM] | -7%[59 µM] | x | x
Cc1cc2c(c(=O)o1)C(C(C)C)C(C#N)=C(N)O2 (stereo unspecified) | u | 2% | 5% | -1% | 5% | 12%
Cc1cc2c(c(=O)o1)C(C1C=CCCC1)C(C#N)=C(N)O2 (stereo unspecified) | 7.9µM* | -4% | -3% | u | -7% | -1%
N#CC1=C(N)SC(N)=C(C#N)C1C1CC=CCC1 (stereo unspecified) | u | -4% | 13% | u | 20µM* | -24%
N#CC1=C(N)SC(N)=C(C#N)C1C1C=CCCC1 (stereo unspecified) | 22µM* | -2% | -13% | u | 40µM* | u
N#CC1=C(N)Oc2n[nH]c(-c3cccs3)c2C1C1C=CCCC1 (stereo unspecified) | -11% | 6% | 17% | u | 2% | 6%
CS(=O)(=O)N1CCN(c2ccccc2NC(=S)NC(=O)c2cccs2)CC1 | 0.45µM* | 12% | u | 17% | 18% | -4%
O=C(NC(=S)Nc1cc(Cl)ccc1N1CCOCC1)c1ccccc1[N+](=O)[O-] | x | -1% | x | x | 0% | x
CS(=O)(=O)N1CCN(c2ccccc2NC(=S)NC(=O)c2ccccc2[N+](=O)[O-])CC1 | 0.71µM* | 1% | x | -23% | 18% | -18%
CCCCCOc1ccc(/C=c2\sc3nc(=O)c(-c4ccccc4)nn3c2=O)cc1OC | 11µM* | -1% | -8% | -9%[59 µM] | -7% | -2%
CCCOc1ccc(/C=c2\sc3nc(-c4ccco4)nn3c2=O)cc1OCC | -5% | -4% | -7% | u | -19% | -6%
CC(C)CCN(C(=O)c1csnn1)C(C(=O)NC1CCCCC1)c1ccc(F)cc1 (stereo unspecified) | x | 2% | x | 17% | 7% | x
Oc1ccc(CNc2cccc(F)c2F)c2cccnc12 | x | x | x | 1.1µM* | x | x
Oc1ccc(Cl)c2cccnc12 | 0% | x | u | 24%[59 µM] | 28% | u
Oc1ccc(CNc2ccc(C(F)(F)F)cc2Cl)c2cccnc12 | x | x | x | 1.8µM* | x | x
Oc1ccc(CNc2ccccc2F)c2cccnc12 | 8.9µM* | u | u | 1µM* | 1% | 7.9µM*
Oc1ccc(CNCc2ccccc2)c2cccnc12 | 17%[13.5 µM] | x | x | x | x | x
COc1ccc(Cl)cc1N1C(=NC(=O)C2CCCCC2)SC2CS(=O)(=O)CC21 (stereo unspecified) | x | 0% | x | -11% | 2% | x
CCN(CC)c1ccc(CN(C(=O)c2ccco2)C2CCS(=O)(=O)C2)cc1 (stereo unspecified) | 22µM* | -14% | 1% | 45µM* | -3% | -5%
CCN(CC)c1ccc(CN(C(=O)c2cc(OC)c(OC)c(OC)c2)C2CCS(=O)(=O)C2)cc1 (stereo unspecified) | 7% | 1% | 7% | 35µM* | -7% | -1%
CCN(CC)c1ccc(CN(C(=O)c2cccs2)C2CCS(=O)(=O)C2)cc1 (stereo unspecified) | x | -7% | x | 40µM* | -1% | x
CCOc1ccccc1C(=O)N(Cc1cc(OC)c(OC)c(OC)c1)C1CCS(=O)(=O)C1 (stereo unspecified) | x | -1% | x | 12%[59 µM] | x | x
Cc1ccc(CN(C(=O)c2cccs2)C2CCS(=O)(=O)C2)cc1 (stereo unspecified) | x | -2% | x | 1% | 17% | x
CCCCNC(=O)c1nn(-c2ccc(CC)cc2)nc1CO | x | 4% | x | 11%[59 µM] | x | x
COC(=O)C1=C(C)N(CCc2ccc(OC)cc2)C(=O)C1 | 10µM* | 0% | -4% | u | 5% | 2%
COC(=O)C1=C(C)N(CCc2c[nH]c3ccc(OC)cc23)C(=O)C1 | 18µM* | 1% | x | u | -8% | -27%

Among those listed so far, these have a furan ring, fused or not:
SMILES | ALDH1A1 inh | miR-21 reporter | LMNA splice mod | G9a inh | Sfp inh | KDM4E inh
CCCOc1ccc(/C=c2\sc3nc(-c4ccco4)nn3c2=O)cc1OCC | -5% | -4% | -7% | u | -19% | -6%
CCN(CC)c1ccc(CN(C(=O)c2ccco2)C2CCS(=O)(=O)C2)cc1 (stereo unspecified) | 22µM* | -14% | 1% | 45µM* | -3% | -5%

Sfp inh: entries above that show a hit.
| canonical_smiles | ALDH1A1 inh | miR-21 reporter | G9a inh | Sfp inh | KDM4E inh |
| --- | --- | --- | --- | --- | --- |
| N#CC1=C(N)SC(N)=C(C#N)C1C1CC=CCC1 (stereo unspecified) | u | -4% | u | 20µM* | -24% |
| N#CC1=C(N)SC(N)=C(C#N)C1C1C=CCCC1 (stereo unspecified) | 22µM* | -2% | u | 40µM* | u |
